Assay results: patent publication US10100019B2
Counter-ions that a name gives are not always drawn. Like-named read-outs stand apart in the source and are kept apart here.

Tested on: Ba/F3 EML4-ALK L1196M cells
Type: cell-based, rodent
[1] = Ba/F3 EML4-ALK L1196M cells, method as Experimental Example 4, type of value not given

Row | Compound | BaF3 EML4 ALK L1196M [1] | BaF3 EML4 ALK L1196M
1 | COc1ccc(C(C)(C)CN)cc1Nc1ncc(Cl)c(Nc2cc(F)ccc2S(=O)(=O)C(C)C)n1 [Example 37, N2-(5-(1-amino-2-methylpropane-2-yl)-2-methoxyphenyl)-5-chloro-N4-(5-fluoro-2-(isopropylsulfonyl)phenyl)pyrimidine-2,4-diamine] | 10 µM | –
2 | COc1ccc(CCN)cc1Nc1ncc(Cl)c(Nc2cc(F)ccc2S(=O)(=O)C(C)C)n1 [Example 33, N2-(5-(2-aminoethyl)-2-methoxyphenyl)-5-chloro-N4-(5-fluoro-2-(isopropylsulfonyl)phenyl)pyrimidine-2,4-diaminehydrochloride] | 10 µM | –
3 | COc1cc(C(C)(C)NC=O)c(C)cc1Nc1ncc(Cl)c(Nc2ccccc2S(=O)(=O)C(C)C)n1 [Example 61, N-(2-(4-((5-chloro-4-((2-(isopropylsulfonyl)phenyl)amino)pyrimidine-2-yl)amino)-5-methoxy-2-methylphenyl)propane-2-yl)formamide] | 0.081 µM | –
4 | COc1ccc(CN)cc1Nc1ncc(Cl)c(Nc2ccccc2S(=O)(=O)C(C)C)n1 [Example 29, N2-(5-(aminomethyl)-2-methoxyphenyl)-5-chloro-N4-(2-(isopropylsulfonyl)phenyl)pyrimidine-2,4-diamine] | 0.12 µM | –
5 | COc1ccc(CCNC(=O)NC2CCCCC2)cc1Nc1ncc(Cl)c(Nc2ccccc2S(=O)(=O)C(C)C)n1 [Example 17, 1-(3-(5-chloro-4-(2-(isopropylsulfonyl)phenylamino)pyrimidine-2-ylamino)-4-methoxyphenethyl)-3-cyclohexylurea] | 0.88 µM | –
6 | CNCC(C)(C)c1cc(OC)c(Nc2ncc(Cl)c(Nc3ccccc3S(=O)(=O)C(C)C)n2)cc1C [Example 60, 5-chloro-N4-(2-(isopropylsulfonyl)phenyl)-N2-(2-methoxy-5-methyl-4-(2-methyl-1-(methylamino)propane-2-yl)phenyl)pyrimidine-2,4-diamine] | – | 0.068 µM
7 | COc1ccc(CC2(N)CC2)cc1Nc1ncc(Cl)c(Nc2ccccc2S(=O)(=O)C(C)C)n1 [Example 3, N2-(5-((1-aminocyclopropyl)methyl)-2-methoxyphenyl)-5-chloro-N4-(2-(isopropylsulfonyl)phenyl)pyrimidine-2,4-diamine] | 0.18 µM | –
8 | CCOCCOC(=O)Cc1ccc(OC)c(Nc2ncc(Cl)c(Nc3ccccc3S(=O)(=O)C(C)C)n2)c1 [Example 43, 2-ethoxyethyl 2-(3-((5-chloro-4-((2-(isopropylsulfonyl)phenyl)amino)pyrimidine-2-yl)amino)-4-methoxyphenyl)acetate] | >10 µM | –
9 | CCNCCc1ccc(OC)c(Nc2ncc(Cl)c(Nc3ccccc3S(=O)(=O)C(C)C)n2)c1 [Example 13, 5-chloro-N2-(5-(2-(ethylamino)ethyl)-2-methoxyphenyl)-N4-(2-(isopropylsulfonyl)phenyl)pyrimidine-2,4-diamine] | 0.73 µM | –
10 | COc1ccc(CCN2CCOCC2)cc1Nc1ncc(Cl)c(Nc2ccccc2S(=O)(=O)C(C)C)n1 [Example 22, 5-chloro-N4-(2-(isopropylsulfonyl)phenyl)-N2-(2-methoxy-5-(2-morpholinoethyl)phenyl)pyrimidine-2,4-diamine] | 0.28 µM | –
11 | COc1ccc(CC(=O)N2CCCCC2)cc1Nc1ncc(Cl)c(Nc2ccccc2S(=O)(=O)C(C)C)n1 [Example 46, 2-(3-((5-chloro-4-((2-(isopropylsulfonyl)phenyl)amino)pyrimidine-2-yl)amino)-4-methoxyphenyl)-1-(piperidine-1-yl)ethane-1-one] | 10 µM | –
12 | CC(C)Oc1ccc(CCN)cc1Nc1ncc(Cl)c(Nc2ccccc2S(=O)(=O)C(C)C)n1 [Example 31, N2-(5-(2-aminoethyl)-2-isopropoxyphenyl)-5-chloro-N4-(2-(isopropylsulfonyl)phenyl)pyrimidine-2,4-diamine] | 1.2 µM | –
13 | CNC(=S)NCCc1ccc(OC)c(Nc2ncc(Cl)c(Nc3ccccc3S(=O)(=O)C(C)C)n2)c1 [Example 19, 1-(3-(5-chloro-4-(2-(isopropylsulfonyl)phenylamino)pyrimidine-2-ylamino)-4-methoxyphenethyl)-3-methylthiourea] | 1.1 µM | –
14 | COc1ccc(C(C)(C)CN)cc1Nc1ncc(Cl)c(Nc2c(F)cccc2S(=O)(=O)C(C)C)n1 [Example 38, N2-(5-(1-amino-2-methylpropane-2-yl)-2-methoxyphenyl)-5-chloro-N4-(2-fluoro-6-(isopropylsulfonyl)phenyl)pyrimidine-2,4-diamine] | 10 µM | –
15 | CCNC(=O)NCCc1ccc(OC)c(Nc2ncc(Cl)c(Nc3ccccc3S(=O)(=O)C(C)C)n2)c1 [Example 16, 1-(3-(5-chloro-4-(2-(isopropylsulfonyl)phenylamino)pyrimidine-2-ylamino)-4-methoxyphenethyl)-3-ethylurea] | 0.8 µM | –
16 | COc1ccc(CCN)cc1Nc1ncc(Cl)c(Nc2c(F)cccc2S(=O)(=O)C(C)C)n1 [Example 34, N2-(5-(2-aminoethyl)-2-methoxyphenyl)-5-chloro-N4-(2-fluoro-6-(isopropylsulfonyl)phenyl)pyrimidine-2,4-diaminehydrochloride] | 10 µM | –

Row | Compound | BaF3 EML4 ALK L1196M [1] | BaF3 EML4 ALK L1196M
17 | COc1cc(C(C)(C)C#N)c(C)cc1Nc1ncc(Cl)c(Nc2ccccc2S(=O)(=O)C(C)C)n1 [Example 54, 2-(4-((5-chloro-4-((2-(isopropylsulfonyl)phenyl)amino)pyrimidine-2-yl)amino)-5-methoxy-2-methylphenyl)-2-methylpropanenitrile] | – | 0.44 µM
18 | COc1ccc(CC(=O)N2CCNCC2)cc1Nc1ncc(Cl)c(Nc2ccccc2S(=O)(=O)C(C)C)n1 [Example 48, 2-(3-((5-chloro-4-((2-(isopropylsulfonyl)phenyl)amino)pyrimidine-2-yl)amino)-4-methoxyphenyl)-1-(piperazine-1-yl) ethane-1-one] | 1.3 µM | –
19 | COc1cc(Br)c(CCN)cc1Nc1ncc(Cl)c(Nc2ccccc2S(=O)(=O)C(C)C)n1 [Example 51, N2-(5-(2-aminoethyl)-4-bromo-2-methoxyphenyl)-5-chloro-N4-(2-(isopropylsulfonyl)phenyl)pyrimidine-2,4-diamine] | 1.6 µM | –
20 | COc1ccc(CC(=O)N2CCOCC2)cc1Nc1ncc(Cl)c(Nc2ccccc2S(=O)(=O)C(C)C)n1 [Example 45, 2-(3-((5-chloro-4-((2-(isopropylsulfonyl)phenyl)amino)pyrimidine-2-yl)amino)-4-methoxyphenyl)-1-morpholinoethane-1-one] | 10 µM | –
21 | CNCCc1ccc(OC)c(Nc2ncc(Cl)c(Nc3ccccc3S(=O)(=O)C(C)C)n2)c1 [Example 10, 5-chloro-N4-(2-(isopropylsulfonyl)phenyl)-N2-(2-methoxy-5-(2-(methylamino)ethyl)phenyl)pyrimidine-2,4-diamine] | 0.73 µM | –
22 | COc1ccc(CC(N)=O)cc1Nc1ncc(Cl)c(Nc2ccccc2S(=O)(=O)C(C)C)n1 [Example 42, 2-(3-((5-chloro-4-((2-(isopropylsulfonyl)phenyl)amino)pyrimidine-2-yl)amino)-4-methoxyphenyl)acetamide] | 0.56 µM | –
23 | COc1ccc(C2(CN3CCCCC3)CCCC2)cc1Nc1ncc(Cl)c(Nc2ccccc2S(=O)(=O)C(C)C)n1 [Example 5] | 2 µM | –
24 | COc1cc(C(C)(C)CN(C)C)c(C)cc1Nc1ncc(Cl)c(Nc2ccccc2S(=O)(=O)C(C)C)n1 [Example 65, 5-chloro-N2-(4-(1-(dimethylamino)-2-methylpropane-2-yl)-2-methoxy-5-methylphenyl)-N4-(2-(isopropylsulfonyl)phenyl)pyrimidine-2,4-diamine] | – | 0.066 µM
25 | COc1ccc(C(C)(C)CN)cc1Nc1ncc(Cl)c(Nc2ccc(F)cc2S(=O)(=O)C(C)C)n1 [Example 36, N2-(5-(1-amino-2-methylpropane-2-yl)-2-methoxyphenyl)-5-chloro-N4-(4-fluoro-2-(isopropylsulfonyl)phenyl)pyrimidine-2,4-diamine] | 10 µM | –
26 | COc1ccc(CCNCC(=O)O)cc1Nc1ncc(Cl)c(Nc2ccccc2S(=O)(=O)C(C)C)n1 [Example 27, 2-(3-(5-chloro-4-(2-(isopropylsulfonyl)phenylamino)pyrimidine-2-ylamino)-4-methoxyphenethylamino)acetic acid] | 0.64 µM | –
27 | COc1ccc(CCN(CCO)CCO)cc1Nc1ncc(Cl)c(Nc2ccccc2S(=O)(=O)C(C)C)n1 [Example 39, 2,2′-(3-(5-chloro-4-(2-(isopropylsulfonyl)phenylamino)pyrimidine-2-ylamino)-4-methoxyphenethylazeindiyl)diethanol] | 1.8 µM | –
28 | COc1cc(CNC=O)c(C)cc1Nc1ncc(Cl)c(Nc2ccccc2S(=O)(=O)C(C)C)n1 [Example 71, N-(4-((5-chloro-4-((2-(isopropylsulfonyl)phenyl)amino)pyrimidine-2-yl)amino)-5-methoxy-2-methylbenzyl)formamide] | 0.062 µM | –
29 | CCNC(=S)NCCc1ccc(OC)c(Nc2ncc(Cl)c(Nc3ccccc3S(=O)(=O)C(C)C)n2)c1 [Example 23, 1-(3-(5-chloro-4-(2-(isopropylsulfonyl)phenylamino)pyrimidine-2-ylamino)-4-methoxyphenethyl)-3-ethylthiourea] | 1.9 µM | –
30 | C=C(C)c1cc(OCC)c(Nc2ncc(Cl)c(Nc3ccccc3S(=O)(=O)C(C)C)n2)cc1CCN [Example 74, N2-(5-(2-aminoethyl)-2-ethoxy-4-(prop-1-ene-2-yl)phenyl)-5-chloro-N4-(2-(isopropylsulfonyl)phenyl)pyrimidine-2,4-diamine] | – | 1.60 µM
31 | COc1ccc(C2(CN)CCCC2)cc1Nc1ncc(Cl)c(Nc2ccccc2S(=O)(=O)C(C)C)n1 [Example 1, N2-(5-(1-(aminomethyl)cyclopentyl)-2-methoxyphenyl)-5-chloro-N4-(2-(isopropylsulfonyl)phenyl)pyrimidine-2,4-diamine] | 1.46 µM | –
32 | COc1ccc(CC(=O)O)cc1Nc1ncc(Cl)c(Nc2ccccc2S(=O)(=O)C(C)C)n1 [Example 44, 2-(3-((5-chloro-4-((2-(isopropylsulfonyl)phenyl)amino)pyrimidine-2-yl)amino)-4-methoxyphenyl)acetic acid] | >10 µM | –
